Values quoted from earlier work as cited in article PMC10483858 (Molecular Cancer, 2023).

Target: PD-L1
Set-up: method as in PMID 32630327
Details: read-out: KD of the PD-1/PD-L1 interaction; ref [10]; cited from earlier work

In the case of “PD-1: immune checkpoint molecule programmed cell death 1, binding partner of PD-L1”, the Kd is listed as about 8 µM.
